The test in a line: TOR pathway RPL19A-GFP modulators, concentration series – cell-based, S. cerevisiae, flow cytometry, MLPCN hits, dose response (AID 2740).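 Also: background is signal of the same compound in parental non-GFP s288c yeast.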 To be noted: S. cerevisiae RPL19A-GFP strain, 3 h, at 33 µM (top of the series). In general terms: A flow cytometer gives signals particle by particle.

Each structure is given as a SMILES string. This is a selection; strong and weak results do not stand in their true shares. Activity calls are given as the source filed them.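 The calls were made as follows: active = compounds whose fitted half-maximal concentration for changing the GFP signal is at or below a set limit; inactive = the rest.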

In the case of `C[N+]1=C2C=CC=CC=C2SC12C([N+](=O)[O-])=CC([N+](=O)[O-])=C[C-]2[N+](=O)[O-]` (stereo unspecified), the GFP fluorescence, lower = active is inactive: 46.6%.

The values are drawn from PubChem BioAssay AID2740 (NMMLSC, 2010).
